Experimental data from PubChem BioAssay AID504842 (National Center for Advancing Translational Sciences (NCATS), 2011).
The list shows a part of the results, in another mix than the full data. The source made the active and inactive calls. Calls come from the whole dose curve; as a rule, active = well fitted inhibition curve with a large enough effect; inconclusive = small, poorly fitted or top-dose-only effect; inactive = flat fitted curve, though single readings scatter.

test system: Chaperonin Mm-Cpn (Methanococcus maripaludis); test: Inhibitors of TCP-1 ring complex (TRiC) of Methanococcus maripaludis (MmCpn): qHTS; settings: purified Mm-Cpn ATPase, ADP Transcreener TR-FRET; at 76.9 µM (top of the series); note: nearly all actives have a fitted effect of over 80% in size
From the text: The eukaryotic chaperonin TRiC (for TCP-1 ring complex) is an essential and conserved chaperone required for the folding and activation of 10-15% of the proteins encoded by the human genome. […] The TRiC complex consist of two stacked 7-9 membered rings, each containing a central cavity. Substrates are folded within the cavity in an ATP-dependent manner. TRiC is a complex of eight different, essential proteins. As each of the genes encoding the eight subunits is essential for cell viability and no protocol has been developed to over-express this enzyme to high levels. That is why several groups studying the TRiC chaperonin have turned to the archaeal homolog of TRiC, Methanococcus maripaludis (Mm-CPN), and have used this enzyme as a model system for the study of the type II chaperonin family. Small molecule inhibitors of the Mm-CPN enzyme would be extremely useful to study the mechanism of chaperonin activity. Importantly, TRiC and Mm-CPN both require ATP hydrolysis for function. Furthermore, the ATP binding sites are highly conserved among these type II chaperonins. This provides us with an easy, well tested and straightforward assay to identify inhibitors of chaperonin activity. The Mm-CPN assay was developed in 1536-well plate format using the HTRF Transcreener ADP assay kit (Cisbio, Bedford, MA). This assay applied the time resolved fluorescence resonance energy transfer (TR-FRET) principle. ATP in the presence of Mm-CPN is converted to ADP + Pi. An antibody labeled with Eu3+-Cryptate specific and bound to ADP labeled with […] (d2) competes with the unlabeled ADP generated by Mm-CPN. The resulting TR-FRET signal is inversely proportional to the concentration of ADP in the sample. In this assay a reduction in TR-FRET signal is observed with ATP turnover. NIH Chemical Genomics Center [NCGC] NIH Molecular Libraries Probe Centers Network [MLPCN] MLPCN Grant: DA030554-01A1 Assay Submitter (PI): Judith Frydman, Stanford University
Purified Mm-CPN was supplied by the laboratory of Dr. Judith Frydman. Protein samples were stored at -80C as single use aliquots. Protein was thawed in ambient temperature water bath and placed on ice once thawed. Buffer was prepared fresh day of screen. The buffer composition below was used to prepare the working solution of the Mm-CPN protein and ATP substrate. The buffer is comprised of 30 mM TRIS pH 7.4, 100mM KCl, 5mM MgCl2, and 1mM DTT. A final concentration of 25nM Mm-CPN and 10uM ATP per well were used in the screen. Instructions according to the manufacturer were followed for the ADP Transcreener kit. Used 1536 well Greiner white, medium binding (MB), solid bottom plates. Plates were read on the PerkinElmer EnVision plate reader using Excitation = 320 nm and Emission = […], 665 nm. Protocol- 1.Dispense 1.5ul per well of working [Mm-CPN] = 50nM (or 75 ng / well) 2.Spin plate at 1000 rpm for 30 seconds 3.23nl of compound transferred per well 4.Incubate at 37degC for 10 minutes 5.Dispense 1.5ul per well of working [ATP] = 20uM 6.Incubate at 37degC for 30 minutes 7.Dispense 3ul per well of Anti-ADP Cryptate / ADP-d2 mix (prepared as instructed by Cisbio) 8.Incubate at ambient for 30 minutes 9.Read using EnVision
% is set by controls: 0 for no effect and ±100 for the full control effect.

Compound	activity, negative = inhibition
Cc1ccc(NCCc2c([N+](=O)[O-])cc([N+](=O)[O-])cc2[N+](=O)[O-])cc1	inactive: -6.73%
Nc1cccc2c([As](=O)(O)O)cccc12	inactive: -8.61%
CCCOP(=S)(Nc1nc(N)cc(=O)[nH]1)OCCC	inactive: 2.91%
CCOP(=O)(Nc1cccc2ccccc12)OCC	inactive: -3.64%
COc1cc(C2NCCC3(OCCO3)C2(C)C)cc(OC)c1OC (stereo not drawn)	inactive: 2.92%
O=C(OC1CN2CCC1CC2)c1ccc(Cl)cc1 (stereo not drawn)	inactive: 0.811%
CS(=O)(=O)c1ccc(Cl)c(NC(=O)COC(=O)C(O)(c2ccccc2)c2ccccc2)c1	inactive: 2.99%
COc1cc(C(=O)NCC2(N3CCOCC3)CCCCC2)cc(Cl)c1OC(C)C	inactive: 0.365%
O=[As](O)(O)c1cccnc1	inactive: -1.43%
O=[As](O)(c1cccc(O)c1)c1cccc(O)c1	inactive: 1.05%
NC(=O)Nc1ccc([As](=O)(O)O)cc1	inactive: 2.28%
CCOP1(=S)c2c(C)nn(CCC#N)c2N=C(c2ccc(F)cc2)N1C (stereo not drawn)	inactive: 0.798%
CN(C(=O)Cc1ccccc1)[C@@H]1CC[C@]2(CCCO2)C[C@H]1N1CCCC1	inactive: 2.41%
N#CCCN(C(=O)COC(=O)C(O)(c1ccccc1)c1ccccc1)c1ccc(F)cc1	inactive: 1.83%
O=[N+]([O-])c1ccc2c(c1)nnn2O	inactive: 0.0351%
O=P(Nc1nccs1)(Oc1ccccc1)Oc1ccccc1	inactive: 2.29%
CCOP1(=S)c2c(C)nn(CCC#N)c2N=C(c2ccccc2F)N1C (stereo not drawn)	inactive: -1.55%
CS(=O)(=O)c1cc([N+](=O)[O-])c2no[n+]([O-])c2c1	inactive: -1.97%
Nc1ccccc1[As](=O)(O)c1ccccc1	inactive: 0.51%
O=C(O)COc1ccc([As](=O)(O)O)cc1[N+](=O)[O-]	inactive: 0.455%
O=P1(Nc2ncccn2)COc2ccccc2OC1	inactive: -1.25%
Nc1cccc([As](=O)(O)c2ccccc2)c1	inactive: 1.92%
O=P1(Nc2ccc(Br)cn2)COc2ccccc2OC1	inactive: 1.47%
NS(=O)(=O)c1cccc(NC(=O)COC(=O)C(O)(c2ccccc2)c2ccccc2)c1	inactive: 0.556%
Cc1ccc(OCC(=O)OC2CN3CCC2CC3)cc1 (stereo not drawn)	inactive: 0.475%
O=[As](O)(c1cccs1)c1cccs1	inactive: 0.401%
CC1CCC(C(C)C)C(OP(=O)(Nc2ccccn2)c2ccccc2)C1 (stereo not drawn)	inactive: -1.16%
Cc1ccc(C(=O)OC2CN3CCC2CC3)cc1 (stereo not drawn)	inactive: -2.3%
